Tests used:
[1] = target: His-tagged soluble recombinant human IGF-IR (srhIGF-1R-his; R&D systems) (human) (UniProt P08069); assay: AlphaScreen competition with biotinylated hIGF-1 on srhIGF-1R-his
[2] = target: human insulin-like growth factor-1 receptor (HIGF-1R) (human) (UniProt P08069); assay: 125I-IGF-1 displacement, SPA-assay
[3] = target: Human IGF-1R (HIGF-1R), purified from BHK cells stably transfected with IGF-1R cDNA (human) (UniProt P08069); assay: competition with 125I-IGF-1 on purified HIGF-1R (IGF-1 displacement)
[4] = target: His-tagged soluble recombinant human IGF-IR (srhIGF-1R-his; R&D systems) (human), P08069; assay: AlphaScreen competition with biotinylated hIGF-1 on srhIGF-1R-his

Chains of the proteins cited; added tags and fusions are not shown. Residues count along the entry.
UniProt P08069, 31-935: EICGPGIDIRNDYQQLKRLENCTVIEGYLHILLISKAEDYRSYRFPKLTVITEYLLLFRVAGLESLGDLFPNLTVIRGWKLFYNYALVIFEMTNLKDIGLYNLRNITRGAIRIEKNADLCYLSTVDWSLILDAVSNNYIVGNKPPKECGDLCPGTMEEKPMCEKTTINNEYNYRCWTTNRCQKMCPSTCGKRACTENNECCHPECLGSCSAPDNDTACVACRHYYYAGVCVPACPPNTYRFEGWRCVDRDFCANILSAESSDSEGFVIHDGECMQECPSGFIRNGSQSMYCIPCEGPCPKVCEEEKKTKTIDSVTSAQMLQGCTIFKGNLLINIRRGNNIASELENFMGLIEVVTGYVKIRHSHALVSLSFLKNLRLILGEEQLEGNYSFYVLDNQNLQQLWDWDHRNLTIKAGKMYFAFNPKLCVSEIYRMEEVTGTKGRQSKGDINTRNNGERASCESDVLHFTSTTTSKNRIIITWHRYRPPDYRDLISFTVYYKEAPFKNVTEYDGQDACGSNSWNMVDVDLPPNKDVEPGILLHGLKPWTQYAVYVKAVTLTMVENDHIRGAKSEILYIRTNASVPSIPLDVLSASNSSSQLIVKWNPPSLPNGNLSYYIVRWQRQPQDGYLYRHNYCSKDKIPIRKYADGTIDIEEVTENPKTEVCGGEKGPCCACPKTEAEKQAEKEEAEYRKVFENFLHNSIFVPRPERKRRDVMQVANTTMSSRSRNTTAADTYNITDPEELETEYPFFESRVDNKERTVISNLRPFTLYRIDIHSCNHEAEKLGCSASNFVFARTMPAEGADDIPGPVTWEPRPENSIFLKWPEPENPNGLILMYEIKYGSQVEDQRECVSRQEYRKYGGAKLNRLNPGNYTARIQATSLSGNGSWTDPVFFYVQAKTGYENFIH
UniProt P08069, 31-1367 limits assumed: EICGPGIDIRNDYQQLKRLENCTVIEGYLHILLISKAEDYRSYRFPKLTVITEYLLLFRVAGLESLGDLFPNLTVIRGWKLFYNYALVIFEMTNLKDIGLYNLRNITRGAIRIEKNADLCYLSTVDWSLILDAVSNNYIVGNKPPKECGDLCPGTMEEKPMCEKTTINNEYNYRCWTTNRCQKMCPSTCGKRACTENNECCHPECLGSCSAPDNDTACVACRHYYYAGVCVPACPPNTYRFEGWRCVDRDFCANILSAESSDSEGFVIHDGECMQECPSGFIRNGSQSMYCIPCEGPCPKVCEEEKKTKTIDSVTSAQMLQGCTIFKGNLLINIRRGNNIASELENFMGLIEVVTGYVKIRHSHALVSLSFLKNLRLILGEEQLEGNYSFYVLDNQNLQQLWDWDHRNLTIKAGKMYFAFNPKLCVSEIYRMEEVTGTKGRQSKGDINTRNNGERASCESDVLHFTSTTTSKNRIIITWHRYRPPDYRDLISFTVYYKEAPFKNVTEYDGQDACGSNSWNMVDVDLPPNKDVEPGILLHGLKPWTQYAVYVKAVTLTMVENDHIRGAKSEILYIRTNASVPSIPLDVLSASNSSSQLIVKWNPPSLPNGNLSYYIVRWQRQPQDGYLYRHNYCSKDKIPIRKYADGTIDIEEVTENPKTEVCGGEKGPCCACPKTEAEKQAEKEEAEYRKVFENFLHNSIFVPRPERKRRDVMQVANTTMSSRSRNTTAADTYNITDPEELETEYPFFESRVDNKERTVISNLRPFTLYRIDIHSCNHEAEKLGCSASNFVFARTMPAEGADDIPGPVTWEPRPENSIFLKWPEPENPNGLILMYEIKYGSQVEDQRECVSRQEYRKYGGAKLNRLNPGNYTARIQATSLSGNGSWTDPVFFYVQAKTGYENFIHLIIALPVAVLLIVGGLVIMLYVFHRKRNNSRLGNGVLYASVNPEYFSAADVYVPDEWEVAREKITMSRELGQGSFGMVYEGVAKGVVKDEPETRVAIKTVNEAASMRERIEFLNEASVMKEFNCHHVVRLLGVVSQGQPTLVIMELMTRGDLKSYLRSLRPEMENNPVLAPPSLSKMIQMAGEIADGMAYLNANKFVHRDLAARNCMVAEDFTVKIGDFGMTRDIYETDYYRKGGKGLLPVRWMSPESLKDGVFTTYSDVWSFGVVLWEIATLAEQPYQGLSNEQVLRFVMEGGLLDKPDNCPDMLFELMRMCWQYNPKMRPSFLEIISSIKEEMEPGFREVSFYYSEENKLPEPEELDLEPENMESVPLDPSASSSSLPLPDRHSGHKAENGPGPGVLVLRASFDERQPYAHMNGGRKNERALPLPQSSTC

| Binder | IC50 [1] | Kd [2] | IC50 [3] | IC50 [4] |
| --- | --- | --- | --- | --- |
| SFYSCLESLVNAPAEKSRGQWEGCRK (D-Ala (printed 'a' in SLVNaPAE; 'a being D-Ala')) [F297] | 8.7 nM | 51 nM | 51 nM |  |
| SFYSCLESLVNGGAERSDGQWEGCR (modifications not checked) [F113] |  |  |  | 560 nM |
